# According to PubChem BioAssay AID952 (NMMLSC, 2007):
# By UniProt entry, the sequences of proteins in these tests, tags left out.
# UniProt Q92843, whole entry: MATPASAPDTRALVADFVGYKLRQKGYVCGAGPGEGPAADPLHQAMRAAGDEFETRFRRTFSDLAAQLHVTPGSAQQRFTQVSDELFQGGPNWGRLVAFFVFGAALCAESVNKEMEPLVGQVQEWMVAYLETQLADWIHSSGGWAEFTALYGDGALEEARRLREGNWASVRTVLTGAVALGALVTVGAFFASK
# The list shows a part of the results, in another mix than the full data. Calls of active or inactive are those of the source. No stated cut-off is given here; in the data, active means inhibition above about 40%.
# Molecular target: Bcl-2-like protein 2 (Homo sapiens) (UniProt Q92843)
# Assay: Bcl-W/Bim complex disruptors – biochemical, multiplexed, bead-based flow cytometry, primary screen (AID 952);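 further: 0% = bound tracer without compound and 100% = peptide blocker; higher means less fluorescent Bim peptide bound to Bcl-W beads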
# Details: Bim peptide-Bcl-W binding, at 10 µM, hits give high values
row,Structure (SMILES),inhibition
1,CCOP(C)(=S)SCC(=O)NC(C)(CC)C(=O)O (centres undefined),inactive: -4%
2,Cc1ccccc1NP(C)(=O)Nc1ccccc1C,inactive: 0%
3,CP(=O)(Nc1ccc2c(c1)OCCO2)Oc1ccccc1 (centres undefined),inactive: -4%
4,CN(C)CCOC(=O)C(O)(c1ccccc1)C1CCCCC1 (centres undefined),inactive: -1%
5,COc1ccc(NP(C)(=O)Oc2ccccc2OC)cc1 (centres undefined),inactive: -4%
6,COc1ccc(OP(C)(=O)Nc2cccc(Br)c2)cc1 (centres undefined),inactive: -4%
7,O=[N+]([O-])c1cc([N+](=O)[O-])c(NCC2CCS(=O)(=O)C2)c([N+](=O)[O-])c1 (centres undefined),inactive: 0%
8,CCOC(=O)c1ccc(NP(C)(=O)Oc2ccc(F)cc2)cc1 (centres undefined),inactive: -1%
9,COc1ccc(OP(C)(=O)Nc2ccc(SC(F)(F)F)cc2)cc1 (centres undefined),inactive: 0%
10,CP(=O)(Nc1ccccc1)Oc1ccc(F)cc1 (centres undefined),inactive: -2%
11,CCN(CC)CCCOC(=O)C(O)(c1ccccc1)C1CCCCC1 (centres undefined),inactive: -2%
12,CP(=O)(Nc1ccccc1F)Oc1ccccc1 (centres undefined),inactive: -1%
13,CC(C)c1ccc(OP(C)(=O)Nc2ccc(SC(F)(F)F)cc2)cc1 (centres undefined),inactive: -13%
14,O=C(OCCN1CCN(CCOCc2ccccc2)CC1)C(O)(c1ccccc1)c1ccccc1,inactive: 1%
15,COc1ccc(OP(C)(=O)Nc2ccccn2)cc1 (centres undefined),inactive: -3%
16,CN(C)CCOC(=O)C(O)(c1ccccc1)C1CCCC1 (centres undefined),inactive: 2%
17,CP(=O)(Nc1ccccn1)Oc1ccccc1 (centres undefined),inactive: 0%
18,COc1ccccc1OP(C)(=O)Nc1ccc(C)cc1C (centres undefined),inactive: 1%
19,CCc1ccc(OP(C)(=O)O)cc1,inactive: -2%
20,O=[N+]([O-])c1cc([N+](=O)[O-])c(Nc2ccccn2)c([N+](=O)[O-])c1,inactive: -5%
21,Cc1c(NP(C)(=O)Oc2ccc(C(C)C)cc2)c(=O)n(-c2ccccc2)n1C (centres undefined),inactive: -2%
22,COc1ccccc1OP(C)(=O)Nc1ccc(C)c(C)c1 (centres undefined),inactive: 0%
23,COc1ccc(OP(C)(=O)Nc2ccccc2Br)cc1 (centres undefined),inactive: -6%

row,Structure (SMILES),inhibition
1,Cc1cc(C)cc(OP(C)(=O)Nc2cccc(C(F)(F)F)c2)c1 (centres undefined),inactive: -2%
2,CP(=O)(OCCOc1ccccc1)OCCOc1ccccc1,inactive: -3%
3,CP(=O)(Nc1ccc(Cl)cc1Cl)Oc1ccccc1 (centres undefined),inactive: 1%
4,Cc1nc2ccc3ccccc3c2o1.O=[N+]([O-])c1cc([N+](=O)[O-])c(O)c([N+](=O)[O-])c1,inactive: 0%
5,CCOC(=O)c1ccc(NP(C)(=O)Oc2ccc(Cl)cc2)cc1 (centres undefined),inactive: -2%
6,CP(=O)(OC12CC3CC(CC(C3)C1)C2)OC12CC3CC(CC(C3)C1)C2,inactive: -3%
7,CP(=O)(Oc1ccccc1)N1CCOC1=O (centres undefined),inactive: -4%
8,CCc1ccc(OP(C)(=O)Nc2cccnc2)cc1 (centres undefined),inactive: 1%
9,CCN(CC)CC(O)COC(=O)C(O)(c1ccccc1)C1CCCCC1 (centres undefined),inactive: 6%
10,COc1ccc(OP(C)(=O)Nc2ccc(Br)cc2)cc1 (centres undefined),inactive: -2%
11,CN(C)C(=O)c1c([N+](=O)[O-])cc([N+](=O)[O-])cc1[N+](=O)[O-],inactive: 1%
12,CC(C)(C)c1ccc(OP(C)(=O)O)cc1,inactive: 1%
13,COc1ccccc1OP(C)(=O)Nc1ccccc1Br (centres undefined),inactive: -1%
14,CP(=O)(Nc1ccc(Cl)cc1)Oc1ccc(F)cc1 (centres undefined),inactive: -3%
15,CP(=O)(NC(=O)Nc1ccccc1)Oc1ccccc1 (centres undefined),inactive: -3%
16,Cc1cc(C)cc(OP(C)(=O)Nc2ccc(SC(F)(F)F)cc2)c1 (centres undefined),inactive: 2%
17,Cc1cccc(C)c1OP(C)(=O)Nc1ccc(SC(F)(F)F)cc1 (centres undefined),inactive: 6%
18,CP(=O)(Oc1ccccc1)OC(c1ccccc1)C(F)(F)F (centres undefined),inactive: 5%
19,CP(=O)(Nc1ccccn1)Oc1ccc(Cl)cc1 (centres undefined),inactive: -1%
20,CCOC(=O)c1ccc(NP(C)(=O)Oc2ccc(OC)cc2)cc1 (centres undefined),inactive: -5%
21,CCOP(C)(=S)SCC(=O)NC(C)C(=O)O (centres undefined),inactive: 1%
22,CP(=O)(Nc1ccccc1Br)Oc1ccccc1 (centres undefined),inactive: -1%
23,COc1ccccc1OP(C)(=O)Nc1ccccc1 (centres undefined),inactive: -2%

row,Structure (SMILES),inhibition
1,CP(=S)(Nn1cnnc1)Oc1ccccc1 (centres undefined),inactive: -4%
2,O=[N+]([O-])c1ccc2c(c1)C=Nc1ccccc1O2,inactive: -1%
3,CC(C)(C)c1ccc(OP(C)(=O)Nc2ccc(SC(F)(F)F)cc2)cc1 (centres undefined),inactive: 0%
4,Cc1cccc(C)c1OP(C)(N)=O (centres undefined),inactive: 0%
5,Cc1cc(C)cc(OP(C)(N)=O)c1 (centres undefined),inactive: 1%
6,COc1ccccc1OP(C)(=O)Nc1cc(Cl)ccc1C (centres undefined),inactive: -2%
7,COc1ccc(OP(C)(=O)Nc2cccc(F)c2)cc1 (centres undefined),inactive: -2%
8,COc1ccccc1OP(C)(=O)Nc1ccc(C)cc1 (centres undefined),inactive: 6%
9,Cc1ccc(NP(C)(=O)Oc2ccccc2)c(C)c1 (centres undefined),inactive: 1%
10,CCOC(=O)c1ccc(NP(C)(=O)Oc2ccccc2)cc1 (centres undefined),inactive: -3%
11,CCN(CC)CCCOC(=O)C(O)(c1ccccc1)c1ccccc1,inactive: 0%
12,CCOC(=O)c1ccc(NP(C)(=O)Oc2cc(C)cc(C)c2)cc1 (centres undefined),inactive: 1%
13,Cc1cc(C)cc(OP(C)(=O)Nc2ccc(C)cc2C)c1 (centres undefined),inactive: 3%
14,Cc1ccc(C)c(NP(C)(=O)Oc2ccccc2)c1 (centres undefined),inactive: -6%
15,CP(=O)(Nc1cccc(Br)c1)Oc1ccccc1 (centres undefined),inactive: 0%
16,Cc1cc(C)cc(OP(C)(=O)Nc2ccccn2)c1 (centres undefined),inactive: 1%
17,CC1=NCCc2c1[nH]c1ccccc21.O=[N+]([O-])c1cc([N+](=O)[O-])c(O)c([N+](=O)[O-])c1,inactive: 0%
18,CP(=O)(Nc1ccc(SC(F)(F)F)cc1)Oc1ccccc1 (centres undefined),inactive: -3%
19,CCCOc1ccc(NP(C)(=O)Oc2ccc(Cl)cc2)cc1 (centres undefined),inactive: 0%
20,COc1ccccc1OP(C)(=O)Nc1c(C)cccc1C (centres undefined),inactive: 2%
21,CN1CCCCC1COC(=O)C1(O)c2ccccc2CCc2ccccc21 (centres undefined),inactive: -4%
22,O=[N+]([O-])c1cc([N+](=O)[O-])c(-n2nnc3ccccc32)c([N+](=O)[O-])c1,inactive: 0%
23,Cc1nc2ccc3ccccc3c2s1.O=[N+]([O-])c1cc([N+](=O)[O-])c(O)c([N+](=O)[O-])c1,inactive: 2%
